Where two headings read alike, the source gives them in different places.
Legend:
Assay in all cases: competition, purified HLA
HLA-A*0101 (human) = target: HLA-A*0101 (human)
HLA-A*3002 (human) = target: HLA-A*3002 (human)
HLA-A*2902 (human) = target: HLA-A*2902 (human)

B1: … (peptide)
peptide: RFHNIRGRW
modifications: not checked
IC50 (HLA-A*0101 (human); remark: other sources report otherwise): 52.9 µM

B2: … (peptide)
peptide: LSVHSIQNDY
modifications: not checked
IC50 (HLA-A*0101 (human)): 0.279 µM

B3: … (peptide)
peptide: ELSSALEIPY
modifications: not checked
IC50 (HLA-A*3002 (human)): 4.47 µM

B4: … (peptide)
peptide: EYRHYCYSLY
modifications: not checked
IC50 (HLA-A*2902 (human)): 0.198 µM

B5: … (peptide)
peptide: YTAGPGPGY
modifications: not checked
IC50 (HLA-A*3002 (human)): 0.755 µM

B6: … (peptide)
peptide: EVGPGPGLY
modifications: not checked
IC50 (HLA-A*2902 (human)): 18.2 µM

B7: … (peptide)
peptide: RQDILDLWVY
modifications: not checked
IC50 (HLA-A*2902 (human)): 13.9 µM

From patent US20060079453A1
